# In patent publication US7888389B2 (The Regents of the University of Michigan, priority 2002, dated 2011):
# Test system: metastatic solid tumors
# Settings: two angiosarcoma patients on TM with IFN-α 500,000 units sc twice a day and radiotherapy
substance,measurement,value
interferon-alpha 2 [IFN-α],duration of disease stabilization,over 60 days
